# Source: article PMC7948749, “A general chemical crosslinking strategy for structural analyses of weakly interacting proteins applied to preTCR–pMHC complexes” (2021)
# Molecular target: N15β S62C
# Assay: BMPEG3 chemical crosslinking linkage screen, SDS-PAGE quantification
# Details: BMPEG3 linker; four parallel linkage experiments; parent: est. 2.0; read off a plot
row,Substance,other: Specificity (heterodimer crosslinking specificity)
1,VSV8/K^b-t2 G56C Q6A,1.7
2,VSV8/K^b-t2 G56C R1A,1.9
3,VSV8/K^b-t2 G56C R1A; V4A; Q6A,1.5
